{"source": "patent US7205002B2", "about": "“Method of making, and the use of cytotoxic agents containing elemental selenium” (MCW Research Foundation, Inc., priority 2002, dated 2007)", "tested_on": "L1210 leukemia cells", "assay": "Cytotoxic activity of conjugates formed by dye photoproducts and serum (lipo)proteins, in vitro clonal assay", "assay_type": "cell-based, murine", "method": "Optimal dye:protein ratios for generation of fluorescent and cytotoxic conjugates: Bovine serum albumin was dissolved at a concentration of 1.75 mg/ml in 10 mM HEPES buffer pH 7.4. […] The mixtures were exposed to white light (27 W/m^2) for 60 min as deescribed above. To assess fluorescent conjugate formation, the photoirradiated mixtures were diluted 30 times with 10 mM HEPES buffer pH 7.4, and fluorescence emission spectra were recorded with a Hitachi F-4500 fluorescence spectrophotometer using an excitation wavelength of 490 nm. To assess cytotoxic activity, cytotoxic conjugates were made isotonic by the addition of an appropriate volume of double-concentrated alpha-medium and incubated with L1210 leukemia cells for 60 min at 37° C. The surviving fraction of in vitro clonogenic leukemia cells was determined by in vitro clonal assay as described in Sieber, F. et al., 1984, which is incorporated by reference in its entirety. [table] Optimal Dye-to-Protein Ratios: For the generation of fluorescent conjugates, the optimal ratio of dye-to-protein is 2:1. For cytotoxic conjugates, the optimal dye-to-protein ratio appears to be about 5:1 (FIG. 7). The fluorescence yield of fluorescent photoproduct-albumin conjugates was determined with a Hitachi F4500 fluorescence spectrophotometer. All samples were serially diluted with buffer to rule out artifacts due to self-quenching. […]", "data": [{"substance": "Human serum albumin: carrier protein for conjugates with MC54-derived photoproducts", "values": [{"measurement": "Cytotoxic Activity", "value": "yes"}]}]}
